Source: ChEMBL document CHEMBL4732055, “Discovery of fast-acting dual-stage antimalarial agents by profiling pyridylvinylquinoline chemical space via copper catalyzed azide-alkyne cycloadditions” (Eur J Med Chem, 2021)

Columns and labels:
[1] = Stability in mouse liver microsomes assessed as half life at 1 uM incubated for 60 mins in presence of NADPH regenerating system by LC/MS analysis; type: ADME, Microsome; details: 1 h
[2] = Stability in mouse liver microsomes assessed as intrinsic clearance at 1 uM incubated for 60 mins in presence of NADPH regenerating system by LC/MS analysis; type: ADME, Microsome; details: 1 h
[3] = Selectivity index, ratio of EC50 for cytotoxicity against human HepG2 cells to EC50 antiplasmodial activity against chloroquine-resistant Plasmodium falciparum Dd2; type: toxicity, cell-based; details: read-out: Ratio EC50

| Structure (SMILES) | t1/2 [1] | CLH [2] | selectivity ratio [3] |
| --- | --- | --- | --- |
| O=C1S/C(=C\c2ccccc2)C(=O)N1Cc1cn(CCNc2cc(/C=C/c3ccncc3)nc3ccc(Cl)cc23)nn1 | 11.88 min | 116.67 µL/min/mg | – |
| CN1CCN(Cc2cn(CCCCNc3cc(/C=C/c4ccncc4)nc4ccc(Cl)cc34)nn2)CC1 | 10.21 min | 135.75 µL/min/mg | – |
| Clc1ccc2nc(/C=C/c3ccncc3)cc(NCCCCn3cc(CN4CCCCC4)nn3)c2c1 | 11.86 min | 116.86 µL/min/mg | – |
| Clc1ccc2nc(/C=C/c3ccncc3)cc(NCCCCn3cc(Cn4cccn4)nn3)c2c1 | 9.21 min | 150.49 µL/min/mg | – |
| Clc1ccc2nc(/C=C/c3ccncc3)cc(NCCCCn3cc(CN4CCCC4)nn3)c2c1 | – | – | > 36.2 |
| Clc1ccc2nc(/C=C/c3ccncc3)cc(NCCCCn3cc(CN4CCOCC4)nn3)c2c1 | 7.97 min | 173.9 µL/min/mg | – |
